Results on one molecule are retold here after patent US5877293, “CDR grafted anti-CEA antibodies and their production” (Celltech Therapeutics Limited, dated 1999).

The test concerns the target Carcinoembryonic Antigen (CEA) (Homo sapiens (Human), UniProt P06731). Nature of the test: competition RIA against 125I-labelled murine or chimeric A5B7 IgG1 on CEA coated beads. On the procedure:
The competition RIA for anti-CEA activity involved competition of a series of ^125I-labelled murine or chimeric A5B7 IgG1 with humanised IgG or fragments thereof from culture supernatant samples for binding to CEA coated beads. Binding activity was determined by measuring bead associated radioactivity. The assay was calibrated by competition with standard preparations of chimeric or murine A5B7 IgG1 and plotting % bound cpm versus antibody concentration. Interpolated apparent A5B7 concentration of unknowns was normalised by dividing by the assembly assay result to give a specific activity. Finally specific activity was expressed as % relative potency by comparison to that obtained from a positive control chimeric A5B7 culture supernatant produced during the same experiment.
The relative potency of purified murine and chimeric A5B7 Fab' and F(ab')_2 fragments and murine IgG was investigated using the competition RIA. In addition, the direct binding ELISA was run in competition mode, by coincubation of the test specimen with murine A5B7 IgG1, for confirmation of relative potency.
The relative potencies of murine and chimeric IgGs and fragments were measured by the competition RIA. All the bivalent species—including the chimeric DFM—gave potency equivalent to that of murine A5B7 IgG. […]

B1: A5B7 chimeric DFM (Di Fab' maleimide) (other)
VH: EVKLVESGGGLVQPGGSLRLSCATSGFTFTDYYMNWVRQPPGKALEWLGFIGNKANGYTTEYSASVKGRFTISRDKSQSILYLQMNTLRAEDSATYYCTRDRGLRFYFDYWGQGTTLTVSS
VL: QTVLSQSPAILSASPGEKVTMTCRASSSVTYIHWYQQKPGSSPKSWIYATSNLASGVPARFSGSGSGTSYSLTISRVEAEDAATYYCQHWSSKPPTFGGGTKLEIKR
modifications: hinge thiol cross-linked with 1,6-bismaleimidohexane
For the molecule B1, the “% Relative Potency” value was determined as 104%.
